Results from ChEMBL document CHEMBL1139291, “Syntheses and opioid receptor binding properties of carboxamido-substituted opioids” (Bioorg Med Chem Lett, 2009).

The chains behind the UniProt entries cited, without tags or fusion partners.
UniProt P41145, whole entry: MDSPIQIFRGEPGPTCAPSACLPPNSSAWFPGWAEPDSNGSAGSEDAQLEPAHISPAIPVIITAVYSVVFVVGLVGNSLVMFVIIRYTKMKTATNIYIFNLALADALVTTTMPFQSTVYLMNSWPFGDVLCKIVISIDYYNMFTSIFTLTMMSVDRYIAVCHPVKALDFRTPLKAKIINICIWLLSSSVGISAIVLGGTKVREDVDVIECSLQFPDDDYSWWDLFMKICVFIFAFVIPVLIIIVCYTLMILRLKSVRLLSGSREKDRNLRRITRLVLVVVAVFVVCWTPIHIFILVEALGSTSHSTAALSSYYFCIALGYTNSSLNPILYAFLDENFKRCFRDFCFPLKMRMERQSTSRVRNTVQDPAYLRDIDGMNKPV
UniProt P35372, whole entry: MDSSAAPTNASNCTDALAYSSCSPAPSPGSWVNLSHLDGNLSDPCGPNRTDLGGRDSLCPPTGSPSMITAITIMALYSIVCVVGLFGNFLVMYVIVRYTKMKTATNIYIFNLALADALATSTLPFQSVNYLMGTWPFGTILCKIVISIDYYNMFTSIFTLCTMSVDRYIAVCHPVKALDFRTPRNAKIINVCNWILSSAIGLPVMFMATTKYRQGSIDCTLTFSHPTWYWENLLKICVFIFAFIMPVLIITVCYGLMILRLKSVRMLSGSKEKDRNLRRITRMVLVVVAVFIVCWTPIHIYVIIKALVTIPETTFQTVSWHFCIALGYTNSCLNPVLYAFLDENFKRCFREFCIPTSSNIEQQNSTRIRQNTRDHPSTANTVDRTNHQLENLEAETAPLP
UniProt P41143, whole entry: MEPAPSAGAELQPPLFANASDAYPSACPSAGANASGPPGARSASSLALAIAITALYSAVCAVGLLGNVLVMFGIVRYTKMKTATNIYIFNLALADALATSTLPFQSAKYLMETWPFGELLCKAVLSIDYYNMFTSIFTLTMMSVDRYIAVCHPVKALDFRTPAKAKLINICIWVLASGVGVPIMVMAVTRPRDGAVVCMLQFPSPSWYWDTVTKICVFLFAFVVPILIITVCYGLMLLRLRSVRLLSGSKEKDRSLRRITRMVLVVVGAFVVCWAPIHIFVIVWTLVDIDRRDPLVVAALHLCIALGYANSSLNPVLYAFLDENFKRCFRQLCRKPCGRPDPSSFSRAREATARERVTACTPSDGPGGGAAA

Experiments:
[1] = target: T1, Kappa-type opioid receptor (Homo sapiens, UniProt P41145); settings: cho
[2] = target: Mu-type opioid receptor (Homo sapiens, UniProt P35372); settings: cho
[3] = target: T1, Kappa-type opioid receptor; settings: cho; remark: listed apart in the source
[4] = target: Delta-type opioid receptor (Homo sapiens, UniProt P41143); test: Displacement of [3H]Naltrindole form human delta opioid receptor expressed in CHO cells

Q: How did the IC50 [1] turn out when `CO[C@@]12CC[C@@]3(C[C@@H]1[C@@](C)(O)C(C)(C)C)[C@H]1Cc4ccc(C(N)=O)c5c4[C@@]3(CCN1CC1CC1)[C@H]2O5` was run?
A: 140 nM

Q: And the IC50 [2]?
A: 4 nM

Q: What about the Ki [3] of the same compound?
A: 2.1 nM

Q: What about the Ki [4] of the same compound?
A: 54 nM
